From patent US12393007B2, “Method for adapting optical properties of an immersion mixture, and immersion mixtures and components thereof” (Carl Zeiss Microscopy GmbH, priority 2018, dated 2025)

Assay: Refractive index ne at 23° C., reference wavelength 546.1 nm
Assay type: physicochemical

Cheminox PO-3-OH phenylacetate ester
ne (refractive index) of the substance: 1.3551
